# In PMC2963127, “Genotoxicity Revaluation of Three Commercial Nitroheterocyclic Drugs: Nifurtimox, Benznidazole, and Metronidazole” (Journal of Parasitology Research, 2009):
# Test system: human leukocytes
# Assay: Alkaline comet assay
# Details: 37°C, 1 hour
structure (smiles),measurement,value
"O=C(Cn1ccnc1[N+](=O)[O-])NCc1ccccc1 [BNZ, N-benzyl-2-(2-nitroimidazol-1-yl)acetamide]","Specific genotoxic activity, DNA migration/dose unit (I: alkaline comet assay)",0.3357 (r ^2 = 0.941) μm/μM
